{"source": "paper PMC12528448", "about": "“Resistance to CDK7 inhibitors directed by acquired mutation of a conserved residue in cancer cells” (The EMBO Journal, 2025)", "system": "22Rv1 cells", "assay": "Growth assay (SRB), 22Rv1", "conditions": "22Rv1, Log10 Conc. (nM) 3.10", "data": [{"compound": "CN(C)C/C=C/C(=O)Nc1ccc(C(=O)N[C@@]2(C)CCC[C@@H](Nc3ncc(Cl)c(-c4c[nH]c5ccccc45)n3)C2)nc1", "note": "[SY-1365]", "values": [{"measurement": "% Growth", "result": -9.14, "unit": "%"}]}]}
